{"sequences": {"note": "By UniProt entry, the sequences of proteins in these tests, tags left out.", "UniProt A0R2W9, whole entry": "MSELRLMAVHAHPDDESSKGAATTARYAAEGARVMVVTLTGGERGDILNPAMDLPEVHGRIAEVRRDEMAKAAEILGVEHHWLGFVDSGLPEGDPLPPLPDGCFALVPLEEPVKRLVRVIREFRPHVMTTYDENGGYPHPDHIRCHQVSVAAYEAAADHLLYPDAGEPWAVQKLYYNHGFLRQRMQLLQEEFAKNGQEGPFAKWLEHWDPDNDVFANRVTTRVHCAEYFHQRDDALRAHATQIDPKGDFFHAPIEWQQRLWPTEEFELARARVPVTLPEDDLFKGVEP"}, "source": "patent US7642280B2", "about": "“Inhibitors of acyl glucosaminyl inositol amidase and methods of use” (The Regents of the University of California, priority 2001, dated 2010)", "key": {"[1]": {"molecular_target": "mycothiol S-conjugate amidase (MCA) (Mycolicibacterium smegmatis, UniProt A0R2W9)", "test": "Fluorescence-detected HPLC assay of MCA cleavage of MSmB (50 μM MSmB as substrate), Examples 1 and 3"}, "[2]": {"molecular_target": "Mycobacterium smegmatis mycothiol-S-conjugate amidase (MCA) (Mycolicibacterium smegmatis, UniProt A0R2W9)", "test": "Fluorescence-based HPLC IC50 assay, wild type M. smegmatis MCA with natural MSmB", "settings": "read-out: IC50 M. smeg; wild type M. smegmatis MCA approx. 20 nM, 30 μM natural MSmB, 20 min, 31° C."}}, "note": "Like-named read-outs stand apart in the source and are kept apart here.", "data": [{"smiles": "NCCCOc1c(Br)cc(CC(=NO)C(=O)NCCc2cnc(N)[nH]2)cc1Br", "values": [{"measurement": "IC50", "setting": "[1]; read-out: concentration that inhibited mycothiol S-conjugate amidase by 50%", "result": 3, "unit": "µM"}]}, {"smiles": "N=C(N)NCCCCNC(=O)C(Cc1cc(Br)c(OCCCN)c(Br)c1)=NO", "values": [{"measurement": "IC50", "setting": "[2]", "result": 3, "unit": "µM"}]}, {"smiles": "CN(C)CCCOc1c(Br)cc(CCN(C)C)cc1Br", "values": [{"measurement": "inhibitory activity against MCA (in words)", "setting": "[1]; absence of cleavage product AcCys-bimane", "result": "ineffective"}, {"measurement": "IC50", "setting": "[1]; read-out: IC50 amidase inhibition (Example 3, FIG. 6)", "result": "> 1000", "unit": "µM"}]}]}
